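Protocol summary: plate cells (96-well), add compound at 5 concentrations, incubate 48 h, interpolate endpoints linearly. Here, GI50 denotes the concentration required for 50% inhibition of growth. TGI marks complete inhibition of growth.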
How the values were obtained:
Experiment in all cases: inhibition of tumour cell growth, NCI panel, 48 h
NCI-H522 lung = test system: NCI-H522 lung
SNB-19 CNS = test system: SNB-19 CNS
A498 renal = test system: A498 renal
HCT-116 colon = test system: HCT-116 colon
MCF7 breast = test system: MCF7 breast
NCI-H322M lung = test system: NCI-H322M lung
COLO 205 colon = test system: COLO 205 colon
CAKI-1 renal = test system: CAKI-1 renal
786-0 renal = test system: 786-0 renal
OVCAR-8 ovarian = test system: OVCAR-8 ovarian
SK-MEL-2 melanoma = test system: SK-MEL-2 melanoma
OVCAR-4 ovarian = test system: OVCAR-4 ovarian
MALME-3M melanoma = test system: MALME-3M melanoma
RXF 393 renal = test system: RXF 393 renal
OVCAR-3 ovarian = test system: OVCAR-3 ovarian
NCI/ADR-RES ovarian = test system: NCI/ADR-RES ovarian
UO-31 renal = test system: UO-31 renal
A549 NSCLC = test system: A549 NSCLC
HOP-62 NSCLC = test system: HOP-62 NSCLC
HOP-92 NSCLC = test system: HOP-92 NSCLC
NCI-H226 lung = test system: NCI-H226 lung
SF-295 CNS = test system: SF-295 CNS
SNB-75 CNS = test system: SNB-75 CNS
KM12 colon = test system: KM12 colon
T-47D breast = test system: T-47D breast
SF-539 CNS = test system: SF-539 CNS
EKVX NSCLC = test system: EKVX NSCLC
ACHN renal = test system: ACHN renal
HT29 colon = test system: HT29 colon
SF-268 CNS = test system: SF-268 CNS
M14 melanoma = test system: M14 melanoma
SN12C renal = test system: SN12C renal
MDA-N = test system: MDA-N
MDA-MB-435 = test system: MDA-MB-435
U251 CNS = test system: U251 CNS
SW-620 colon = test system: SW-620 colon
NCI-H23 lung = test system: NCI-H23 lung
PC-3 prostate = test system: PC-3 prostate
IGROV1 ovarian = test system: IGROV1 ovarian
MOLT-4 leukemia = test system: MOLT-4 leukemia
HCT-15 colon = test system: HCT-15 colon
UACC-257 melanoma = test system: UACC-257 melanoma
HL-60(TB) leukemia = test system: HL-60(TB) leukemia
CCRF-CEM leukemia = test system: CCRF-CEM leukemia
MDA-MB-231 breast = test system: MDA-MB-231 breast
TK-10 renal = test system: TK-10 renal
NCI-H460 lung = test system: NCI-H460 lung
SK-MEL-28 melanoma = test system: SK-MEL-28 melanoma
DU-145 prostate = test system: DU-145 prostate
HCC-2998 colon = test system: HCC-2998 colon
SK-OV-3 ovarian = test system: SK-OV-3 ovarian
SK-MEL-5 melanoma = test system: SK-MEL-5 melanoma
SR leukemia = test system: SR leukemia
RPMI-8226 leukemia = test system: RPMI-8226 leukemia
OVCAR-5 ovarian = test system: OVCAR-5 ovarian
LOX IMVI melanoma = test system: LOX IMVI melanoma

CC1=CC2OC3CC4OC(=O)/C=C/C=C/C(=O)OCCC(C)C(O)C(=O)OCC2(CC1O)C4(C)C31CO1 (stereo not given)
GI50 (NCI-H522 lung): < 1 nM
TGI (NCI-H522 lung): < 1 nM
GI50 (SNB-19 CNS): 1.38 nM
TGI (SNB-19 CNS): 4.42 nM
GI50 (A498 renal): 2.32 nM
TGI (A498 renal): 5.09 nM
GI50 (HCT-116 colon): < 1 nM
TGI (HCT-116 colon): 2.17 nM
GI50 (MCF7 breast): < 1 nM
TGI (MCF7 breast): < 1 nM
GI50 (NCI-H322M lung): 14.6 nM
TGI (NCI-H322M lung): 63.5 nM
GI50 (COLO 205 colon): 1.52 nM
TGI (COLO 205 colon): 3.36 nM
GI50 (CAKI-1 renal): 7.47 nM
TGI (CAKI-1 renal): 40.9 nM
GI50 (786-0 renal): 2.12 nM
TGI (786-0 renal): 11.1 nM
GI50 (OVCAR-8 ovarian): 3.41 nM
TGI (OVCAR-8 ovarian): 21.9 nM
GI50 (SK-MEL-2 melanoma): < 1 nM
TGI (SK-MEL-2 melanoma): 2.71 nM
GI50 (OVCAR-4 ovarian): 2.43 nM
TGI (OVCAR-4 ovarian): 6.4 nM
GI50 (MALME-3M melanoma): 1.62 nM
TGI (MALME-3M melanoma): 3.3 nM
GI50 (RXF 393 renal): 1.2 nM
TGI (RXF 393 renal): 3.16 nM
GI50 (OVCAR-3 ovarian): < 1 nM
TGI (OVCAR-3 ovarian): 3.07 nM
GI50 (NCI/ADR-RES ovarian): 136 nM
TGI (NCI/ADR-RES ovarian): 648 nM
GI50 (UO-31 renal): 16.3 nM
TGI (UO-31 renal): 50 nM
GI50 (A549 NSCLC): 9.94 nM
TGI (A549 NSCLC): 58.3 nM
GI50 (HOP-62 NSCLC): 1.61 nM
TGI (HOP-62 NSCLC): 6.48 nM
GI50 (HOP-92 NSCLC): 1.08 nM
TGI (HOP-92 NSCLC): 3.29 nM
GI50 (NCI-H226 lung): 1.63 nM
TGI (NCI-H226 lung): 2.35 nM
GI50 (SF-295 CNS): 2.22 nM
TGI (SF-295 CNS): 5.69 nM
GI50 (SNB-75 CNS): < 1 nM
TGI (SNB-75 CNS): 1.64 nM
GI50 (KM12 colon): < 1 nM
TGI (KM12 colon): 1.68 nM
GI50 (T-47D breast): 1.26 nM
TGI (T-47D breast): 3.01 nM
GI50 (SF-539 CNS): < 1 nM
TGI (SF-539 CNS): 1.45 nM
GI50 (EKVX NSCLC): 17.1 nM
TGI (EKVX NSCLC): 59.7 nM
GI50 (ACHN renal): 3.28 nM
TGI (ACHN renal): 17.5 nM
GI50 (HT29 colon): 1.14 nM
TGI (HT29 colon): 4.81 nM
GI50 (SF-268 CNS): 2.96 nM
TGI (SF-268 CNS): 13.6 nM
GI50 (M14 melanoma): 1.23 nM
TGI (M14 melanoma): 2.13 nM
GI50 (SN12C renal): 3.86 nM
TGI (SN12C renal): 25.8 nM
GI50 (MDA-N): 1.22 nM
TGI (MDA-N): 2.7 nM
GI50 (MDA-MB-435): < 1 nM
TGI (MDA-MB-435): 1.84 nM
GI50 (U251 CNS): 1.36 nM
TGI (U251 CNS): 4.34 nM
GI50 (SW-620 colon): 2.05 nM
TGI (SW-620 colon): 11 nM
GI50 (NCI-H23 lung): 4.18 nM
TGI (NCI-H23 lung): 17.2 nM
GI50 (PC-3 prostate): 3.19 nM
TGI (PC-3 prostate): 12.7 nM
GI50 (IGROV1 ovarian): 1.63 nM
TGI (IGROV1 ovarian): 6.55 nM
GI50 (MOLT-4 leukemia): < 1 nM
TGI (MOLT-4 leukemia): < 1 nM
GI50 (HCT-15 colon): < 1 nM
TGI (HCT-15 colon): 3.83 nM
GI50 (UACC-257 melanoma): 1.17 nM
TGI (UACC-257 melanoma): 3.24 nM
GI50 (HL-60(TB) leukemia): < 1 nM
TGI (HL-60(TB) leukemia): < 1 nM
GI50 (CCRF-CEM leukemia): < 1 nM
TGI (CCRF-CEM leukemia): 2.03 nM
GI50 (MDA-MB-231 breast): 5.93 nM
TGI (MDA-MB-231 breast): 33.2 nM
GI50 (TK-10 renal): 2.15 nM
TGI (TK-10 renal): 9.67 nM
GI50 (NCI-H460 lung): 1.34 nM
TGI (NCI-H460 lung): 4.32 nM
GI50 (SK-MEL-28 melanoma): < 1 nM
TGI (SK-MEL-28 melanoma): 1.68 nM
GI50 (DU-145 prostate): 3.74 nM
TGI (DU-145 prostate): 19.9 nM
GI50 (HCC-2998 colon): 1.11 nM
TGI (HCC-2998 colon): 2.96 nM
GI50 (SK-OV-3 ovarian): 2.19 nM
TGI (SK-OV-3 ovarian): 7.38 nM
GI50 (SK-MEL-5 melanoma): < 1 nM
TGI (SK-MEL-5 melanoma): < 1 nM
GI50 (SR leukemia): 74.7 nM
GI50 (RPMI-8226 leukemia): < 1 nM
GI50 (OVCAR-5 ovarian): 17.8 nM
TGI (OVCAR-5 ovarian): 69.2 nM
GI50 (LOX IMVI melanoma): < 1 nM
TGI (LOX IMVI melanoma): < 1 nM
